Experimental findings from US8273774B2, “Phenoxypyridinylamide compounds” (AstraZeneca AB, priority 2008, dated 2012) are described below.

Amino acid sequences for entries named in this document (tags omitted). Residues count along the entry.
UniProt Q07343, 1-564 isoform Q07343-2: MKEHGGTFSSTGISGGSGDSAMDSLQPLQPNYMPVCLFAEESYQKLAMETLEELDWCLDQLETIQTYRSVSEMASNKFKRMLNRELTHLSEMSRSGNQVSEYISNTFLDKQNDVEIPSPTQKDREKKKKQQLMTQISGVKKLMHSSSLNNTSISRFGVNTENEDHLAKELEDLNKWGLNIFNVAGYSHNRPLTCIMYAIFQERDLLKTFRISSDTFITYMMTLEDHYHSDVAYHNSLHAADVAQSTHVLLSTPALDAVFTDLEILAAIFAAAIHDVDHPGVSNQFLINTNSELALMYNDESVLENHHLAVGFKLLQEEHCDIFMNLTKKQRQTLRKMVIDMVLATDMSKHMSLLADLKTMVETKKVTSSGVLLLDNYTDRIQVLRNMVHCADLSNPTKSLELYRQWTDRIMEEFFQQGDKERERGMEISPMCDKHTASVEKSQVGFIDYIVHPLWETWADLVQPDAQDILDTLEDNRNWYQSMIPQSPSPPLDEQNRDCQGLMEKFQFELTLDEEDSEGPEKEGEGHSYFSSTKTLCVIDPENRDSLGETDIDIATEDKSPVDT

For this assay, the target named is recombinant Human Phosphodiesterase B2 (PDE4B2) (Homo sapiens, UniProt Q07343). The assay is described as follows: Human Phosphodiesterase B2 Radiometric Assay. The assay is classed as biochemical. The conditions noted are these: 0.1 μg/mL recombinant PDE4B2; preincubated at 30 C for 30 min; [3H]cyclic AMP 8 nM, stopped after 20 min; yttrium silicate SPA beads; read-out: PDE4B2 pIC50 (converted). Here is the method: Human Phosphodiesterase B2 Radiometric Assay
The assay uses recombinant Human Phosphodiesterase B2 (PDE4B2) produced in house (PrAZL0163), stored at −20° C. This assay is based on the observation that 5′AMP, the product of the reaction catalysed by PDE4, binds preferentially to yttrium silicate SPA beads (Amersham Biosciences, UK) compared to the substrate, cAMP. Compounds at the appropriate concentration were preincubated at 30 C for 30 min with an assay buffer containing 50 mM HEPES (pH 7.5), 8.3 mM MgCl2, 1.7 mM EGTA, 0.01% (w/v) Brij®35 and 0.1 μg/mL recombinant PDE4B2. The reaction was started by the addition of [3H]cyclic AMP to give a final concentration of 8 nM, and was stopped 20 min after the addition of the substrate by the addition of yttrium silicate SPA beads containing 18 mM Zn SO4. Bound […] was measured using a Topcount NXT (Packard Bioscience, UK). pIC50 values (presented in Table 2) were determined using Xlfit3 curve fitting, using model 205.
Regarding `Cc1cc(C(=O)N[C@H]2CC[C@@H](NC(=O)c3cc(F)cnc3Oc3cccc(-c4ccc(O)cc4CN4CCOCC4)c3)CC2)nn1C` [Example 2, N-((1s,4s)-4-(1,5-dimethyl-1H-pyrazole-3-carboxamido)cyclohexyl)-5-fluoro-2-(4′-hydroxy-2′-(morpholinomethyl)biphenyl-3-yloxy)nicotinamide], the IC50 was 0.0158 nM. The result for `O=C(N[C@H]1CC[C@@H](NC(=O)c2ncccc2O)CC1)c1cc(F)cnc1Oc1cccc(-c2ccc(O)cc2CN2CCOCC2)c1` [Example 35, N-((1s,4s)-4-(5-fluoro-2-(4′-hydroxy-2′-(morpholinomethyl)biphenyl-3-yloxy)nicotinamido)cyclohexyl)-3-hydroxypicolinamide] reads 0.126 nM; that for `Cc1nc(C(=O)N[C@H]2CC[C@@H](NC(=O)c3cc(F)cnc3Oc3cccc(-c4ccc(CN(C)C)cc4)c3)CC2)cs1` [Example 53, N-((1s,4s)-4-(2-(4′-((dimethylamino)methyl)biphenyl-3-yloxy)-5-fluoronicotinamido)cyclohexyl)-2-methylthiazole-4-carboxamide], 0.398 nM.

As for `Cc1cc(C(=O)N[C@H]2CC[C@@H](NC(=O)c3cc(F)cnc3Oc3cccc(-c4ccc(O)c(CN5C[C@@H](C)N[C@@H](C)C5)c4)c3)CC2)nn1C` [Example 61, N-((1s,4s)-4-(1,5-dimethyl-1H-pyrazole-3-carboxamido)cyclohexyl)-2-(3′-(((3S,5R)-3,5-dimethylpiperazin-1-yl)methyl)-4′-hydroxybiphenyl-3-yloxy)-5-fluoronicotinamide], the IC50 was 0.02 nM. The result for `Cc1cc(C(=O)N[C@H]2CC[C@@H](NC(=O)c3cc(F)cnc3Oc3cccc(-c4cc(O)cc(CN5C[C@@H](C)N[C@@H](C)C5)c4)c3)CC2)nn1C` [Example 66, N-((1s,4s)-4-(1,5-dimethyl-1H-pyrazole-3-carboxamido)cyclohexyl)-2-(3′-(((3R,5S)-3,5-dimethylpiperazin-1-yl)methyl)-5′-hydroxybiphenyl-3-yloxy)-5-fluoronicotinamide] reads 0.0316 nM.

Regarding `Cc1ccc(O)c(C(=O)N[C@H]2CC[C@@H](NC(=O)c3cc(F)cnc3Oc3cccc(-c4ccc(CN5C[C@@H](C)N[C@@H](C)C5)cc4CN4CCOCC4)c3)CC2)c1` [Example 145, 2-(4′-(((3S,5R)-3,5-dimethylpiperazin-1-yl)methyl)-2′-(morpholinomethyl)biphenyl-3-yloxy)-5-fluoro-N-((1s,4s)-4-(2-hydroxy-5-methylbenzamido)cyclohexyl)nicotinamide], the IC50 was 0.02 nM.
